Source: PubChem BioAssay AID1272365 (Small Molecule Screening Facility, UW Madison, 2020)
Where “and” joins values, the source holds several entries; their conditions need not be identical. Identical values can stand only once. Only a part is listed here, and it is no random draw. Calls of active or inactive are those of the source. No stated cut-off is given here; in the data, active means inhibition mostly above about 37% (no sharp cut-off); inactive means mostly below about 20%.

Each molecule was assayed on PriA–SSB C-terminal tail interaction (Klebsiella pneumoniae) (assay: blocks PriA binding to SSB C-terminal tail, primary screen, biochemical, AlphaScreen (AID 1272365;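 further: plate controls were negative control peptide for no effect and reference peptide for full effect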)). Conditions: AlphaScreen SSBct-PriA binding, biotinylated peptide; at 33 µM; hits give high values.
For `CC(=O)Nc1ccc([As](=O)(O)O)c(O)c1`, the inhibition was inactive: -5.21%.
For `CC(=O)Nc1ccc(Oc2c([N+](=O)[O-])cc([N+](=O)[O-])cc2[N+](=O)[O-])cc1`, the inhibition was inactive: -11.1%.
In the case of `O=P1(Nc2nc3ccc(Cl)cc3s2)COc2ccccc2O1` (configuration not stated), the inhibition was inactive: -8.11%.
`CCOc1ccc(C2=NCC(CBr)S2)cc1` (configuration not stated) was tested, and the inhibition was inactive: -3.32%.
`CCc1cc(O)c([N+](=O)[O-])c(C)c1[N+](=O)[O-]` was tested, and the inhibition was inactive: -4.57%.
In the case of `CC(C)(C)C(=O)NC(Sc1ccccc1)C(Cl)(Cl)Cl` (configuration not stated), the inhibition was inactive: -24.7%.
In the case of `COC(=O)c1cc2c(s1)N=C(c1ccccc1)N(C)P2(=O)N1CCOCC1` (configuration not stated), the inhibition was inactive: 1.51%.
In the case of `CC(=O)NC(SC(=S)N(CC(C)C)CC(C)C)C(Cl)(Cl)Cl` (configuration not stated), the inhibition was inactive: 15.3%.
`Cc1ccc(OP(=O)(Nc2ccccn2)Oc2ccc(C)cc2)cc1` was tested, and the inhibition was inactive: -25.8%.
With `O=C(OC1CN2CCC1CC2)c1ccccc1` (configuration not stated) the inhibition was inactive: -10.3%.
With `CCC(=O)N1C2C3N(C(=O)CC)C1C1N(C(=O)CC)C(C(N1C(=O)CC)N3C(=O)CC)N2C(=O)CC` the inhibition was inactive: -6.34%.
With `Cc1ccccc1OP(=O)(Nc1ccccn1)Oc1ccccc1C` the inhibition was inactive: -1.29%.
`CC(NC(=O)COC(=O)C(O)(c1ccccc1)c1ccccc1)c1ccccc1` (configuration not stated) was tested, and the inhibition was inactive: -6.72%.
For `CN(C)C(=O)Oc1noc2ccccc12`, the inhibition was inactive: -9.16%.
`O=c1c2cc([N+](=O)[O-])ccc2[nH]c2c([N+](=O)[O-])cc([N+](=O)[O-])cc12` was tested, and the inhibition was inactive: -7.91%.
`O=C(NC1CCS(=O)(=O)C1)NP(=S)(Oc1ccccc1)Oc1ccccc1` (configuration not stated) was tested, and the inhibition was inactive: -31.8%.
In the case of `Cc1cc(NC(=O)COC(=O)C2(O)c3ccccc3-c3ccccc32)no1`, the inhibition was inactive: -2%.
`c1ccc(-c2nn[nH]n2)c(-c2nn[nH]n2)c1` was tested, and the inhibition was active: 72.8%.
For `Cc1ccc(NP(=O)(Oc2cccc(C)c2)Oc2cccc(C)c2)nc1`, the inhibition was inactive: -20.9%.
`O=P1(N(CCCl)CCCl)OCCC2CCCCN21` (configuration not stated) was tested, and the inhibition was inactive: -10.5%.
With `NC(=O)Nc1ccc([As](=O)(O)O)cc1` the inhibition was inactive: -19.3%.
In the case of `CN(C)C(=O)c1cc([N+](=O)[O-])cc2c1-c1c(cc([N+](=O)[O-])cc1[N+](=O)[O-])C2=O`, the inhibition was inactive: 9.29%.
`O=[N+]([O-])c1ccc2c(c1)nnn2O` was tested, and the inhibition was inactive: -6.95%.
`CN(C(=O)Cc1ccc(Cl)c(Cl)c1)[C@H]1CC[C@@]2(CCCO2)C[C@@H]1N1CCCC1` was tested, and the inhibition was inactive: -9.18%.
`Cc1ccc(NC(=NP(=O)(N2CCOCC2)N2CCOCC2)N2CCOCC2)cc1` was tested, and the inhibition was inactive: -9.32%.
For `N#CCCN(C(=O)COC(=O)C(O)(c1ccccc1)c1ccccc1)c1ccc(F)cc1`, the inhibition was inactive: -5.45%.
`CCOP1(=S)c2c(C)nn(CCC#N)c2N=C(c2ccc(F)cc2)N1C` (configuration not stated) was tested, and the inhibition was inactive: -5.64%.
With `CN(C(=O)Cc1ccccc1)[C@@H]1CC[C@]2(CCCO2)C[C@H]1N1CCCC1` the inhibition was inactive: -10%.
In the case of `CS(=O)(=O)c1cc([N+](=O)[O-])c2no[n+]([O-])c2c1`, the inhibition was inactive: 2.17%.
With `CCOP1(=S)c2c(C)nn(CCC#N)c2N=C(c2ccccc2F)N1C` (configuration not stated) the inhibition was inactive: -7.52%.
`O=P(Nc1nccs1)(c1ccccc1)c1nc2ccccc2s1` (configuration not stated) was tested, and the inhibition was inactive: -8.38%.
For `O=P(Nc1nccs1)(Oc1ccccc1)Oc1ccccc1`, the inhibition was inactive: -0.47%.
With `CC(=O)NC(SC1=NCCS1)C(Cl)(Cl)Cl` (configuration not stated) the inhibition was inactive: -24%.
In the case of `Nc1ccccc1[As](=O)(O)c1ccccc1`, the inhibition was inactive: -1.19%.
With `O=C(O)COc1ccc([As](=O)(O)O)cc1[N+](=O)[O-]` the inhibition was inactive: -5.33%.
For `O=C(NC(Sc1ccc(Cl)cc1)C(Cl)(Cl)Cl)c1ccccc1Cl` (configuration not stated), the inhibition was inactive: 4%.
In the case of `CCCOP(=S)(Nc1nc(N)cc(=O)[nH]1)OCCC`, the inhibition was inactive: -4.92%.
For `Cc1ccc(NCCc2c([N+](=O)[O-])cc([N+](=O)[O-])cc2[N+](=O)[O-])cc1`, the inhibition was active: 76.7%.
In the case of `Nc1cccc2c([As](=O)(O)O)cccc12`, the inhibition was inactive: -5.19%.
With `COc1cc(C2NCCC3(OCCO3)C2(C)C)cc(OC)c1OC` (configuration not stated) the inhibition was inactive: -5.89%.
`CCOP(=O)(Nc1cccc2ccccc12)OCC` was tested, and the inhibition was inactive: -10% and inactive: 5.5%.
In the case of `COc1cc(C(=O)NCC2(N3CCOCC3)CCCCC2)cc(Cl)c1OC(C)C`, the inhibition was inactive: -15%.
`O=[As](O)(O)c1cccnc1` was tested, and the inhibition was inactive: -10.9%.
In the case of `CS(=O)(=O)c1ccc(Cl)c(NC(=O)COC(=O)C(O)(c2ccccc2)c2ccccc2)c1`, the inhibition was inactive: 5.69%.
`O=C(OC1CN2CCC1CC2)c1ccc(Cl)cc1` (configuration not stated) was tested, and the inhibition was inactive: -1%.
`O=[As](O)(c1cccc(O)c1)c1cccc(O)c1` was tested, and the inhibition was inactive: 6.02%.
`Cc1cccc(OCC(=O)OC2CN3CCC2CC3)c1` (configuration not stated) was tested, and the inhibition was inactive: 7.08%.
For `COc1ccccc1CNC(=O)COC(=O)C(O)(c1ccccc1)c1ccccc1`, the inhibition was inactive: -1.84%.
`O=c1[nH]c(SCC(Cl)CSc2ccc([N+](=O)[O-])cc2)nc2ccccc12` (configuration not stated) was tested, and the inhibition was inactive: -4%.
With `CC1(CBr)Cn2c(nc3ccccc3c2=O)S1` (configuration not stated) the inhibition was inactive: -16.4%.
With `CN(C(=O)Cc1ccc(Cl)c(Cl)c1)[C@@H]1CCCC[C@H]1N1CCCC1` the inhibition was inactive: -6.99%.
`CN(CCCl)Cc1cc(Cl)c(NC2=NCCN2)c(Cl)c1` was tested, and the inhibition was inactive: 14.8%.
In the case of `CCOP(=O)(Nc1ccc(C)cn1)OCC`, the inhibition was inactive: -13.5%.
`O=P1(Nc2ccccn2)COc2ccccc2OC1` was tested, and the inhibition was inactive: 0.85%.
With `CCC1=CC2Cc3nc4ccc(Cl)cc4c(N)c3C(C1)C2` (configuration not stated) the inhibition was inactive: 1.61%.
In the case of `CCOP(=O)(NC(=NC(C)c1ccccc1)NC(C)c1ccccc1)OCC` (configuration not stated), the inhibition was inactive: -21%.
In the case of `CC(C)(C)C(=O)NC(Sc1ncccn1)C(Cl)(Cl)Cl` (configuration not stated), the inhibition was inactive: -9.16%.
`O=P1(Nc2ncccn2)COc2ccccc2OC1` was tested, and the inhibition was inactive: -5.05%.
For `O=P1(Nc2ccc(Br)cn2)COc2ccccc2OC1`, the inhibition was inactive: -12.7%.
`NS(=O)(=O)c1cccc(NC(=O)COC(=O)C(O)(c2ccccc2)c2ccccc2)c1` was tested, and the inhibition was inactive: 4.65%.
In the case of `Cc1ccc(OCC(=O)OC2CN3CCC2CC3)cc1` (configuration not stated), the inhibition was inactive: -1.55%.
`O=[As](O)(c1cccs1)c1cccs1` was tested, and the inhibition was inactive: -1.31%.
